Source: patent US20200246284A1 (Academia Sinica, priority 2015, published 2020)

Experiments:
BMMSC BM mesenchyme = experiment: Cytotoxicity normal tissue 72 hr; format: cell-based, human
NOSE ovarian epithelium = experiment: Cytotoxicity normal tissue 72 hr; format: cell-based, human
[1] = system: HUVEC umbilical endothelium; experiment: Cytotoxicity normal tissue 72 hr; format: cell-based, human
[2] = system: BCI-NSI hTERT bronchial epithelium; experiment: Cytotoxicity normal tissue 72 hr; format: cell-based, human
[3] = system: Cord Blood CFC (CFU-GM, BFU-E, CFU-C); experiment: CFC assay; format: cell-based, human
[4] = system: cord blood hematopoietic progenitors (CD34+ cells, CFC); experiment: Cytotoxicity normal tissue 72 hr (Table 27); settings: CD34, 72 hr
[5] = system: normal human, murine or primate cell and tissue types; experiment: Cytotoxicity, panel of normal tissues (MTT, alamar blue); format: cell-based
CV1 renal fibroblasts = experiment: Cytotoxicity normal tissue 72 hr; format: cell-based, African green monkey (Cercopithecus aethiops); settings: CV1 primate
JEKO-1 = experiment: Cytotoxicity mantle cell lymphoma; settings: JEKO-1, 72 hr (Table 27)

## 4-Hydroperoxycyclophosphamide
BMMSC BM mesenchyme; BMMSC
  IC50: 40.5 µM
BMMSC BM mesenchyme; HuMSC
  IC50: 40.5 µM
NOSE ovarian epithelium
  IC50: 0.3 µM
[1]
  IC50: 40.5 µM
[2]; BCI-NSI hTERT
  IC50: 18 µM
[2]; Bci-NSI
  IC50: 18 µM
[3]
  IC50: 2.01 µM
[4]
  IC50: 2.01 µM
[5]; 2 normal tissues, moderate cytotoxicity
  IC50: 0.3 to 2.01 µM
[5]; 5 resistant normal tissues
  IC50: 12.5 to 47 µM
CV1 renal fibroblasts
  IC50: 47 µM
JEKO-1
  IC50: 10 µM
